Consider one molecule from ChEMBL document CHEMBL1122788, “Quantitative relationships between alpha-adrenergic activity and binding affinity of alpha-adrenoceptor agonists and antagonists” (J Med Chem, 1984).

Chains of the proteins cited; added tags and fusions are not shown. Lines headed by an entry give the natural chain unless they say otherwise; changes in a name come on top.
UniProt P22086: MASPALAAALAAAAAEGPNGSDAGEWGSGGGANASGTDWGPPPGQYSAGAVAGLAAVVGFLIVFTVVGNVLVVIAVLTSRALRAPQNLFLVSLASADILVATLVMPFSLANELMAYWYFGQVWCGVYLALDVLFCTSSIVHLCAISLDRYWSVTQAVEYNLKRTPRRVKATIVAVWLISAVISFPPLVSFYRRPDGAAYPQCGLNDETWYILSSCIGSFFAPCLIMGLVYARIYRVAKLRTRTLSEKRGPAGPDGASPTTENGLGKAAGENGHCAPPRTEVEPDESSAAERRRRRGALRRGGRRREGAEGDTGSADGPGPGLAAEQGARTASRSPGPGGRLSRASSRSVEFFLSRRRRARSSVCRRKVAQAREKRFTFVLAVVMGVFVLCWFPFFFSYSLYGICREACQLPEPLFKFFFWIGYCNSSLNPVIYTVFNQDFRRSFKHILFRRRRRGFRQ
UniProt P19328: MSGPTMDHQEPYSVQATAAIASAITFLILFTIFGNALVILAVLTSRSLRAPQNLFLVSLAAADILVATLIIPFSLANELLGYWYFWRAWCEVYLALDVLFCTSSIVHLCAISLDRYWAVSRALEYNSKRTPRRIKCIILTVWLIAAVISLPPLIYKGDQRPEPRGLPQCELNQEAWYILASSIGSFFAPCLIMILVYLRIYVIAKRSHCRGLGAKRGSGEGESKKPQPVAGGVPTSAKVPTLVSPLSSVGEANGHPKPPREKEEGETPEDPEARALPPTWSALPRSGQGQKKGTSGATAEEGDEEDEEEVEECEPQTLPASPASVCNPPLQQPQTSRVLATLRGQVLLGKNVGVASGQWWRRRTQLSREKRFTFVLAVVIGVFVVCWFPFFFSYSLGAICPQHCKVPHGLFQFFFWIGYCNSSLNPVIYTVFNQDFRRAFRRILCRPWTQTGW
UniProt P22909: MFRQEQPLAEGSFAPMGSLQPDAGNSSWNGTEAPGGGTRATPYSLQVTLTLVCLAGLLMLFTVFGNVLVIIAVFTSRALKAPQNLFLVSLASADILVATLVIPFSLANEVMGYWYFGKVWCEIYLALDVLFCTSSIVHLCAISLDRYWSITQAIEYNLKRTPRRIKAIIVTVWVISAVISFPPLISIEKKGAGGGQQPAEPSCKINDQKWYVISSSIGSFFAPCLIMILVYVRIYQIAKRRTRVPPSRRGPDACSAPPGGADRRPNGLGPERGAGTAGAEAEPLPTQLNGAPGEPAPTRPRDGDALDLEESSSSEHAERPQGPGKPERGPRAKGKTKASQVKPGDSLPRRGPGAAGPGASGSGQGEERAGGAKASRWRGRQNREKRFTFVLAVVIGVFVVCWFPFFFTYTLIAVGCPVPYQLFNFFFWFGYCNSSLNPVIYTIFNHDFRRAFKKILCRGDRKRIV

A word on the IC50: it is the concentration at which inhibition is half-maximal. Low readings indicate inhibition by little substance, high ones a need for much substance.

The experiment concerns the target Adrenergic receptor alpha-2 (Rattus norvegicus, UniProt P22086+P19328+P22909). The experiment in a line: Binding affinity against Alpha-2 adrenergic receptor is the ability to inhibit the specific [3H]clonidine binding (0.4 nM) to rat isolated brain membranes by 50% was reported; 3.6*10e-9. Format: tissue-based, Membrane.

`Brc1c(NC2=NCCN2)ccc2nccnc12` [BRIMONIDINE] registered an IC50 of 3.6 nM.
